The record followed here is US9273046B2, “Fused tricyclic compounds as Raf kinase inhibitors” (BeiGene, LTD., priority 2011, dated 2016).

Amino acid sequences for entries named in this document (tags omitted).
UniProt P04049, whole entry Y340D/Y341D: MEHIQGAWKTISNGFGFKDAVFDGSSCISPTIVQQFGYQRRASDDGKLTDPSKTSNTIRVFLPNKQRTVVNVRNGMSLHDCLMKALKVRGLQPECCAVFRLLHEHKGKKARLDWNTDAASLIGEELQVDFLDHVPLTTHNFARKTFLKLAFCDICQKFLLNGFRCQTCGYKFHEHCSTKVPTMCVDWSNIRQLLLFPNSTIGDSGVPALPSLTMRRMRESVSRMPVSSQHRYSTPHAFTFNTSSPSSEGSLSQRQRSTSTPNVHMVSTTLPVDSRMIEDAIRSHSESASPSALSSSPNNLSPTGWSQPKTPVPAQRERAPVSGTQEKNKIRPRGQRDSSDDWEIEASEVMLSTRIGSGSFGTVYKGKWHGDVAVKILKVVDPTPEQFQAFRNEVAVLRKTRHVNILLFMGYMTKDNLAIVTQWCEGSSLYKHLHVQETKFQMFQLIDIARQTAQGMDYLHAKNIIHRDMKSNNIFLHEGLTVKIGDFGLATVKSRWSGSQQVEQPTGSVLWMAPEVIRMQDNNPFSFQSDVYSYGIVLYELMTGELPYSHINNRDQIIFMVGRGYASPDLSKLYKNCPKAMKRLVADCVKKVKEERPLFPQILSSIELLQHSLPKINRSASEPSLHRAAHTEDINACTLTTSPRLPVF

One may read the IC50 as the midpoint of a concentration-inhibition curve.

In the assay the target is C-Raf (Y340D/Y341D) (Homo sapiens (Human), UniProt P04049, Y340D/Y341D). The experiment in a line: Raf IC50 assay, time-resolved fluorescence energy transfer (TR-FRET), C-Raf. In kind it is biochemical. To be noted: 0.5 nM C-Raf, 0.1 mM ATP, GST-tagged MEK1 substrate, 60 min preincubation. The protocol:
The assay was carried out in reactions (10 μL) containing 0.0625 nM B-Raf or 0.5 nM C-Raf, 25 mM Tris pH7.4, 10 mM MgCl2, 0.5 mM EGTA, 0.5 mM […], 5 mM beta-glycerophosphate, 0.01% Triton X-100, 2.5 mM DTT, 0.1% BSA, 0.1 mM ATP, 13.7 nM GST-tagged MEK1 (Full-length protein with K97R mutation, recombinant protein purified from bacterial expression system) and 0-5 μM compounds disclosed herein (final concentration of 1% DMSO). The enzyme was incubated with the compounds at room temperature for 60 minutes and the reactions were initiated by the addition of ATP and GST-MEK1. After incubating at room temperature for 60 minutes, an equal volume of stop buffer containing 25 mM Tris pH7.4, 400 mM KF, 50 mM EDTA, 0.01% BSA, 0.01% Triton X-100, 1 test of Eu3+ Cryptate-conjugated rabbit polyclonal antibody anti-Phospho MEK1/2 (Ser217/221) and 1 test of d2-conjugated mouse monoclonal antibody anti-glutathione S-transferase was added to stop the reactions. Plates were sealed and incubated at room temperature for 2 hours, and then the TR-FRET signals were read on BMG PHERAstar FS instrument. The IC50 for each compound was calculated by non linear regression by Graphpad Prism software.
On the technique in general: Time-resolved FRET reads energy transfer from a long-lived donor to a nearby acceptor.
`O=C1CCc2c(Oc3ccc4c(c3)C3C(C4)C3c3nc4ccccc4[nH]3)ccnc2N1` (racemic) [Compound 1.1, (±)-exo-5-((1-(1H-benzo[d]imidazol-2-yl)-1,1a,6,6a-tetrahydrocyclopropa[a]inden-3-yl)oxy)-3,4-dihydro-1,8-naphthyridin-2(1H)-one] registered an IC50 of 1.4 nM.
For `FC(F)(F)c1ccc2nc(C3C4Oc5ccc(Oc6ncnc7[nH]cnc67)cc5C43)[nH]c2c1` (racemic) [Compound 3.5, (±)-exo-6-((1-(6-(trifluoromethyl)-1H-benzo[d]imidazol-2-yl)-1a,6b-dihydro-1H-cyclopropa[b]benzofuran-5-yl)oxy)-9H-purine] the value was 20 nM.
The value for `O=C1CCc2c(Oc3ccc4c(c3)C3C(O4)C3c3nc(C(F)(F)F)c[nH]3)ccnc2N1` (racemic) [Compound 2.33, (±)-exo-5-((1-(4-(trifluoromethyl)-1H-imidazol-2-yl)-1a,6b-dihydro-1H-cyclopropa[b]benzofuran-5-yl)oxy)-3,4-dihydro-1,8-naphthyridin-2(1H)-one] was 0.6 nM.
The value for `Cc1cc(Oc2ccnc3c2CCC(=O)N3)cc2c1OC1C(c3nc4ccc(C(F)(F)F)cc4[nH]3)C21` (racemic) [Compound 2.35, (±)-exo-5-((3-methyl-1-(6-(trifluoromethyl)-1H-benzo[d]imidazol-2-yl)-1a,6b-dihydro-1H-cyclopropa[b]benzofuran-5-yl)oxy)-3,4-dihydro-1,8-naphthyridin-2(1H)-one] was 12 nM; that for `O=C1CCc2c(Oc3ccc4c(c3)C3C(O4)C3c3nc4cc(C(F)(F)F)ccc4n3CCO)ccnc2N1` (racemic) [Compound 2.34, (±)-exo-5-((1-(1-(2-hydroxyethyl)-5-(trifluoromethyl)-1H-benzo[d]imidazol-2-yl)-1a,6b-dihydro-1H-cyclopropa[b]benzofuran-5-yl)oxy)-3,4-dihydro-1,8-naphthyridin-2(1H)-one] was 4.2 nM.
Regarding `Cc1cc2nc(C3C4Oc5cc(Cl)c(Oc6ccnc7c6CCC(=O)N7)cc5C43)[nH]c2cc1F` (racemic) [Compound 2.37, (±)-exo-5-((4-chloro-1-(6-fluoro-5-methyl-1H-benzo[d]imidazol-2-yl)-1a,6b-dihydro-1H-cyclopropa[b]benzofuran-5-yl)oxy)-3,4-dihydro-1,8-naphthyridin-2(1H)-one], 23 nM corresponded to half-maximal inhibition (IC50).
